Assay results published in patent publication US20080280357A1, “Cryopreservation of Hepatocytes” (priority 2005, published 2008).

Legend:
[1] = test system: freshly isolated hepatocytes (testosterone hydroxylation); settings: freshly cultured hepatocytes, 24 hours in rifampicin
[2] = test system: human hepatocytes cryopreserved according to the invention (testosterone hydroxylation); settings: cryopreserved and recultured hepatocytes, 24 hours in rifampicin

induction of formation of 6α-hydroxytestosterone (6α-OHT) [1]: unable to induce
induction of formation of 6α-hydroxytestosterone (6α-OHT) [2]: unable to induce
SMILES: CO[C@H]1/C=C/O[C@@]2(C)Oc3c(C)c(O)c4c(O)c(c(/C=N/N5CCN(C)CC5)c(O)c4c3C2=O)NC(=O)/C(C)=C\C=C\[C@H](C)[C@H](O)[C@@H](C)[C@@H](O)[C@@H](C)[C@H](OC(C)=O)[C@@H]1C [rifampicin]
